# Tested on: levels of acetylcholine in the cerebral cortex (frontal area), in the hippocampus and in the corpus striatum
# Assay: Levels of acetylcholine in rat brain areas after 1 week of treatment
# Set-up: species or system Male Wistar rats
# Details: in vivo, po, 2.5 mg/kg
# Excerpt: The effects of the combination of the cholinergic precursor choline alfoscerate and rivastigmine (acetylcholinesterase inhibitor) on the levels of acetylcholine in the cerebral cortex (frontal area), in the hippocampus and in the corpus striatum of rats, and on the immunoreactivity of the neuronal acetylcholine in the neurones of the magnocellular nucleus basalis (MNB) and in the corpus striatum were studied.
# Male Wistar rats were divided into 5 groups, one of which was a control group (non-treated), one treated for 1 week by intraperitoneal administration of 150 mg/kg of choline alfoscerate, one treated with a daily oral dose of 2.5 mg/kg of rivastigmine, the fourth with 150 mg/kg of choline alfoscerate plus 0.625 mg/kg of rivastigmine and the fifth with 150 mg/kg of choline alfoscerate plus 2.5 mg/kg of rivastigmine.
smiles,measurement,value
CCN(C)C(=O)Oc1cccc([C@H](C)N(C)C)c1 [rivastigmine],increased the levels of acetylcholine,approximately 20%
